Source: PMC6273235, “Phenolic Constituents of Medicinal Plants with Activity against Trypanosoma brucei” (Molecules, 2016)

Assays:
HEK293T cells = test: Cytotoxicity assay (resazurin, 3 days), HEK293T; type: cell-based, human; conditions: CC50 (HEK293T)/IC50 (T. brucei)
Protocol: (§1) HEK293T and HepG2 cells were cultured at 37 °C with 5% CO2 in Dulbecco’s modified eagle medium containing 10% FBS. Both cell lines were plated individually in 384 well plates (4000 cells per well) and the natural compounds (two fold 10 points serial dilution starting from 5 ppm) were added for 3 days of incubation.

HepG2 cells = test: Cytotoxicity assay (resazurin, 3 days), HepG2; type: cell-based, human; conditions: CC50 (HepG2)/IC50 (T. brucei)
Protocol: as §1

COc1ccc([C@@H](O)[C@@H](C)Oc2ccc([C@H]3O[C@H](c4ccc(O[C@H](C)[C@H](O)c5ccc(OC)c(OC)c5)c(OC)c4)[C@H](C)[C@H]3C)cc2OC)cc1OC [Compound 13, manassantin A]
s.i (selectivity index) HEK239T (HEK293T cells): >2.18
s.i (selectivity index) HepG2 (HepG2 cells): >2.52
